# Data: patent US20260382728A1, “MODIFIED PROTEINS AND PROTEIN BINDERS AND DEGRADERS” (published 2026)
# Amino acid sequences for entries named in this document (tags omitted). Residues count along the entry.
# UniProt Q9Y4B6, 1058-1396: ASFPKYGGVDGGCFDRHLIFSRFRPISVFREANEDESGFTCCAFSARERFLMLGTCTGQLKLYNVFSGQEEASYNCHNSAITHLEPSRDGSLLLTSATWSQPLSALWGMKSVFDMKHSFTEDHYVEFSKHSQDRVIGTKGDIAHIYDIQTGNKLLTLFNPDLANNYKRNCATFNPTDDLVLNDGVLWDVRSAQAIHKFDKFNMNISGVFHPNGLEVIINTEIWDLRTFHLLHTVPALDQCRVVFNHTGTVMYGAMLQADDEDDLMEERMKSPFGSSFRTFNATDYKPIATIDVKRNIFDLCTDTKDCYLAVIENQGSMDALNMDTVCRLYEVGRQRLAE
# UniProt P11802, whole entry: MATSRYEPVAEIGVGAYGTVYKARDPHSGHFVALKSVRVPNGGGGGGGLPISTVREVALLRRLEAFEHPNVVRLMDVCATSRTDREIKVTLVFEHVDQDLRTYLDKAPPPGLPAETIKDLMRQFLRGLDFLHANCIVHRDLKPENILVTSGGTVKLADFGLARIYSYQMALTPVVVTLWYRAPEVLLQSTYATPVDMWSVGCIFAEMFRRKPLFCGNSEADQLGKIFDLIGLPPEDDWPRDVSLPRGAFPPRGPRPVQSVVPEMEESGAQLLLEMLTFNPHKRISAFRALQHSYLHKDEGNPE
# UniProt P03372, whole entry: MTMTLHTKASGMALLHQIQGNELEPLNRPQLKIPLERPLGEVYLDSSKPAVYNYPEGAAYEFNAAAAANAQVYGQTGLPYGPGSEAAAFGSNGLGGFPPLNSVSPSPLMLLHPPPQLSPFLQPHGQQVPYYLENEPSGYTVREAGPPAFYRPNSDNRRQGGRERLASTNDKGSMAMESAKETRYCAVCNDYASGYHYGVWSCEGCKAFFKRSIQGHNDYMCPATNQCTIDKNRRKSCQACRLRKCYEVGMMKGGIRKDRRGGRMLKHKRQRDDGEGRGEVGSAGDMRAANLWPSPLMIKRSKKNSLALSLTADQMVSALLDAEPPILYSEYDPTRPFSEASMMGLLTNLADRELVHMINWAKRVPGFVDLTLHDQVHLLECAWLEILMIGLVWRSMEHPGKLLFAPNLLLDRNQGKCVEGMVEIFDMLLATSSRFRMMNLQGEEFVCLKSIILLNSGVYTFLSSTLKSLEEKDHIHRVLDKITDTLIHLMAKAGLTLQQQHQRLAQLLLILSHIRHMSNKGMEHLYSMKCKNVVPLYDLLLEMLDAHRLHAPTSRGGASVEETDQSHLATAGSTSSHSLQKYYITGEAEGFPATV
# Legend:
# cyclin D1 [1] = test: cyclin D1 protein levels in MDA-MB-157 cells (PF-07220060-based compounds); conditions: 16-hour treatment
# DCAF1 (1058-1396) [2] = molecular target: T1, DCAF1 (1058-1396) (Homo sapiens, UniProt Q9Y4B6); test: covalent binding by intact mass spectrometry analysis; conditions: DCAF1 5 μM, compound 200 μM, 8 h at rt
# DCAF1 (1058-1396) [3] = molecular target: T1, DCAF1 (1058-1396); test: Covalent binding to DCAF1 by intact mass spectrometry; conditions: 200 μM compound, 5 μM DCAF1, 8 h, rt
# MV4;11 cells = test: Cell viability inhibition of MV4;11 cells (CellTiter-Glo); conditions: read-out: Cell viability inhibition IC50, 3 days, 3-fold serial dilution
# CDK4 [4] = molecular target: T2, CDK4 (Homo sapiens, UniProt P11802); test: CDK4 degradation in MOLT-4 cells (immunoblotting); conditions: 8 hours
# BRD4 [5] = molecular target: T3, BRD4 (Homo sapiens, UniProt O60885); test: BRD4 degradation in MV4;11 cells (immunoblotting)
# CDK4 [6] = molecular target: T2, CDK4; test: CDK4 protein levels in MOLT-4 cells by immunoblotting; conditions: 8 hours
# cyclin D1 [7] = test: cyclin D1 protein levels in T47D and Calu-1 cells (PF-06873600-based compounds); conditions: 16-hour treatment
# CDK4 [8] = molecular target: T2, CDK4; test: CDK4 degradation in T47D cells (immunoblotting); conditions: 16 hours
# cyclin D1 [9] = test: Cyclin D1 degradation in T47D cells (immunoblotting); conditions: 16 hours
# CDK4 [10] = molecular target: T2, CDK4; test: CDK4 protein levels in T47D and Calu-1 cells (PF-06873600-based compounds); conditions: 16-hour treatment
# ERα [11] = molecular target: T4, ERα (Homo sapiens, UniProt P03372); test: ERα degradation in T47D cells; conditions: serum starved 2 hours, 24 hours, serum-free
# ERα [12] = molecular target: T4, ERα; test: ERα protein levels in T47D cells (lasofoxifene-based compounds); conditions: 24-hour treatment, serum-free, 1 μM
# BRD4 [13] = molecular target: T3, BRD4; test: BRD4 protein levels in MV4;11 cells; conditions: 10 μM, FIG. 5B
# cyclin D1 [14] = test: cyclin D1 protein levels in T47D cells (palbociclib-based compounds); conditions: 16 hours
smiles,measurement,setting,value
CC(C)n1c(C(C)(C)O)nc2c(F)cc(-c3nc(N[C@@H]4CCOC[C@H]4O)ncc3Cl)cc21,cyclin D1 protein levels,cyclin D1 [1],didn't affect cyclin D1 proteins levels dramatically
C=CC(=O)N1CCC2(C1)CN(c1nc(N3CCOCC3)c3occc3n1)C2,covalent binding to purified DCAF1 (1058-1396),DCAF1 (1058-1396) [2],covalent binders
same,"Covalent binding, Reacted",DCAF1 (1058-1396) [3],Y
Fc1cccc(N2CCCC(Nc3cc(N4CCOCC4)ncn3)C2)c1 (centres unmarked),IC50,MV4;11 cells,> 1000 nM
same,% CDK4 Degradation (at 1 μM),CDK4 [4]; 1 μM,D (D < 20%)
same,% CDK4 degradation (at 10 μM),CDK4 [4]; 10 μM,D (D < 20%)
same,% BRD4 Degradation (at 10 μM),BRD4 [5],D (D < 20%)
same,CDK4 protein levels,CDK4 [6],didn't affect CDK4 proteins levels dramatically
C[C@@]1(O)CCC[C@H]1n1c(=O)c(C(F)F)cc2cnc(NC3CCN(S(C)(=O)=O)CC3)nc21,cyclin D1 protein levels,cyclin D1 [7],didn't affect cyclin D1 and CDK4 protein levels at indicated concentrations
same,% CDK4 Degradation (at 1 μM),CDK4 [8],D (D < 20%)
same,% Cyclin D1 Degradation (at 1 μM),cyclin D1 [9],D (D < 20%)
same,CDK4 protein levels,CDK4 [10],didn't affect cyclin D1 and CDK4 protein levels at indicated concentrations
Oc1ccc2c(c1)CC[C@H](c1ccccc1)[C@@H]2c1ccc(OCCN2CCCC2)cc1,% ERα Degradation (at 1 μM),ERα [11],D (D < 20%)
same,ERα protein levels,ERα [12],didn't affect ERα protein levels at 1 μM significantly
C=CC(=O)N1CC2(C1)CN(c1ncnc(N3CCOCC3)n1)C2,covalent binding to purified DCAF1 (1058-1396),DCAF1 (1058-1396) [2],covalent binders
same,"Covalent binding, Reacted",DCAF1 (1058-1396) [3],Y
C=CC(=O)N1CC2(CC(Nc3cccc(N4CCN(CC)CC4)n3)C2)C1,covalent binding to purified DCAF1 (1058-1396),DCAF1 (1058-1396) [2],covalent binders
same,"Covalent binding, Reacted",DCAF1 (1058-1396) [3],Y
Cc1sc2c(c1C)C(c1ccc(Cl)cc1)=N[C@@H](CC(=O)NCCCCCN1CCN(c3cc(N[C@@H]4CCCN(c5cccc(F)c5)C4)ncn3)CC1)c1nnc(C)n1-2,"BRD4 degradation, time course",BRD4 [13],Significant degradation of BRD4 were readily detected as early as 4 hours
same,IC50,MV4;11 cells,100 to 300 nM
same,% BRD4 Degradation (at 10 μM),BRD4 [5],A (A: ≥ 70%)
C=CC(=O)N1CC2(C1)CN(c1cccc(N3CCOCC3)n1)C2,covalent binding to purified DCAF1 (1058-1396),DCAF1 (1058-1396) [2],covalent binders
same,"Covalent binding, Reacted",DCAF1 (1058-1396) [3],Y
CC(=O)c1c(C)c2cnc(Nc3ccc(N4CCNCC4)cn3)nc2n(C2CCCC2)c1=O,cyclin D1 protein levels,cyclin D1 [14],didn't affect cyclin D1 protein levels dramatically
C=CC(=O)N1CCC(Nc2cc(N3CCN(CC)CC3)ncn2)CC1,covalent binding to purified DCAF1 (1058-1396),DCAF1 (1058-1396) [2],covalent binders
same,"Covalent binding, Reacted",DCAF1 (1058-1396) [3],Y
Cc1sc2c(c1C)C(c1ccc(Cl)cc1)=N[C@@H](CC(=O)NCCNC(=O)CCCCN1CCN(c3cc(N[C@@H]4CCCN(c5cccc(F)c5)C4)ncn3)CC1)c1nnc(C)n1-2,"BRD4 degradation, time course",BRD4 [13],Significant degradation of BRD4 were readily detected as early as 4 hours
same,IC50,MV4;11 cells,100 to 300 nM
same,% BRD4 Degradation (at 10 μM),BRD4 [5],A (A: ≥ 70%)
